Assay [1] addresses T1, Sialidase-3 (Homo sapiens) (UniProt Q9UQ49).
T1 sequence (whole entry): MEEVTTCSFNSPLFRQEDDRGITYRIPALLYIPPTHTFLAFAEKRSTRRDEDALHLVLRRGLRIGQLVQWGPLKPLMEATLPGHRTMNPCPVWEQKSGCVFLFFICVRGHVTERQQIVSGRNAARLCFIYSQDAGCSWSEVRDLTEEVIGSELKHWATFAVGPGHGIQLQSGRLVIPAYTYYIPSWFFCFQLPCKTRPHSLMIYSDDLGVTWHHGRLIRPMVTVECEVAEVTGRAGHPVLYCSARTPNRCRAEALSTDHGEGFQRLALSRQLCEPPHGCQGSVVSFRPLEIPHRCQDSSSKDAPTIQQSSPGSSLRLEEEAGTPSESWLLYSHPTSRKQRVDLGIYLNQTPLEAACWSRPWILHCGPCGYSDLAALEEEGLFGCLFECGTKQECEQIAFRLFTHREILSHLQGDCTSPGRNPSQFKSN
The experiment in a line: Inhibition of human NEU3 transiently transfected in HEK293 cells at 1 mM by fluorimetric analysis. The class given is cell-based. Put shortly: (§1)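 Enzyme source was the crude supernatant of homogenates from HEK-293 cells transiently transfected with a full-length human sialidase cDNA plasmid. The reaction contained 10–20 nmol substrate (4MU-Neu5Ac) as bound sialic acid, 0.2 mg BSA, sodium acetate pH 4.6 and 0.2 mg Triton X-100. It was incubated at 37 °C for 10–30 min, and released sialic acid was quantified. Inhibitors were tested at 1 mM and reported as percent inhibition.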

Assay [2] deals with T2, Sialidase-4 (Homo sapiens) (UniProt Q8WWR8).
T2 sequence (whole entry): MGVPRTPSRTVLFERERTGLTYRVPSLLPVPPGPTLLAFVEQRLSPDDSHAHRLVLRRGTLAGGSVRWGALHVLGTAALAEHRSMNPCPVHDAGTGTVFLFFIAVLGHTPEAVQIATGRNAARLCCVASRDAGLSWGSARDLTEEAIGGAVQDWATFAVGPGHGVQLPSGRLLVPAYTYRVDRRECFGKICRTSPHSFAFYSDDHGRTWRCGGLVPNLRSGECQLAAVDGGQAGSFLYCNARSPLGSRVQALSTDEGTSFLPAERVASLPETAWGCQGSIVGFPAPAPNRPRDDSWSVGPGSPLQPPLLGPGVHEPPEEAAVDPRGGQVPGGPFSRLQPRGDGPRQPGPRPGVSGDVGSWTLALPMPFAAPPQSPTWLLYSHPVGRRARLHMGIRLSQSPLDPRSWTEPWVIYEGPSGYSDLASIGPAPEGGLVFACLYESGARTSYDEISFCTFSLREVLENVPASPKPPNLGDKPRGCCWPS
The assay can be described thus: Inhibition of human NEU4 transiently transfected in HEK293 cells at 1 mM by fluorimetric analysis. The class given is cell-based. The method in brief: as §1

The structures appear in SMILES notation.

On to `CC(=O)Nc1cc(F)c(C(=O)O)cc1NC(=O)c1ccc(-c2ccccc2)cc1`, for which the inhibition (usually the change of the read-out against control, counted positive when it falls) was found to be 8% in assay [1] and 10% in assay [2].

Values taken from ChEMBL document CHEMBL1152936, “Human sialidase inhibitors: design, synthesis, and biological evaluation of 4-acetamido-5-acylamido-2-fluoro benzoic acids” (Bioorg Med Chem, 2009).
